# Test results: PubChem BioAssay (Tox21)
# Sequences of proteins named here, by UniProt entry; tags and fusion partners are left off.
# UniProt P03372, whole entry: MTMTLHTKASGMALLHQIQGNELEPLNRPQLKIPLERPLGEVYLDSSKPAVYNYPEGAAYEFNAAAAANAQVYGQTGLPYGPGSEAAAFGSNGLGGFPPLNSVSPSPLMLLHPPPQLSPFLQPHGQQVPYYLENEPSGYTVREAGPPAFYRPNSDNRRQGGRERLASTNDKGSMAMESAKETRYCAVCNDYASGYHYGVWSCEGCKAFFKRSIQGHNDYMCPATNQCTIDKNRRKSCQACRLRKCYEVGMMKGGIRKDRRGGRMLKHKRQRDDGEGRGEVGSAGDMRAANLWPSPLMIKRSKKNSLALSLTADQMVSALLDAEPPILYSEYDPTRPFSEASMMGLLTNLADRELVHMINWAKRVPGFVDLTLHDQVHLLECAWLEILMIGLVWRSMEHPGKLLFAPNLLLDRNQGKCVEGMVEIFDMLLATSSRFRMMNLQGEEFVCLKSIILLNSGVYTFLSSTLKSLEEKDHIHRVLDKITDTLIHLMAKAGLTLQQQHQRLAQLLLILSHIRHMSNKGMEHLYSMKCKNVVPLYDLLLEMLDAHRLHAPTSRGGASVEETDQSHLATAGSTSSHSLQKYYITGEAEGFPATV
# UniProt P16473, whole entry: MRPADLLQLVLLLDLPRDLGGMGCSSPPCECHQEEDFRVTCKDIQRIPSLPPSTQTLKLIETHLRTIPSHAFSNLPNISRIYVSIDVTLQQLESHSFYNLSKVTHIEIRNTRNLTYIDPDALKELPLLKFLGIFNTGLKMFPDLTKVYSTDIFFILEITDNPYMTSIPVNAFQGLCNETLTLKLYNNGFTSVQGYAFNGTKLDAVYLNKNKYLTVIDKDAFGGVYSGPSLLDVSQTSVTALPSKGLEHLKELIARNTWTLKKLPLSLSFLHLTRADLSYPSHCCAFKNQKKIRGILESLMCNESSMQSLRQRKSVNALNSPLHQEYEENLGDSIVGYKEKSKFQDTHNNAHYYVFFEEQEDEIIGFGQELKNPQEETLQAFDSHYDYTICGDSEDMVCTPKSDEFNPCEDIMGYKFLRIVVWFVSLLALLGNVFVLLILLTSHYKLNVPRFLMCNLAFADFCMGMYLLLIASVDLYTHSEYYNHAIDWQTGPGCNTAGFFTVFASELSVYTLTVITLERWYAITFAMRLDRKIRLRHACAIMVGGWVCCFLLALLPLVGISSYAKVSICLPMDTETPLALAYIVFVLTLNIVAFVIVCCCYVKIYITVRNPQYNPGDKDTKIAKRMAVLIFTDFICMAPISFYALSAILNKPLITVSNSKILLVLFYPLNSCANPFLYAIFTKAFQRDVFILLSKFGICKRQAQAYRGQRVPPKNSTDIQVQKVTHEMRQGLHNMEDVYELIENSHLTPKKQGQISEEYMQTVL
# UniProt P06401, whole entry: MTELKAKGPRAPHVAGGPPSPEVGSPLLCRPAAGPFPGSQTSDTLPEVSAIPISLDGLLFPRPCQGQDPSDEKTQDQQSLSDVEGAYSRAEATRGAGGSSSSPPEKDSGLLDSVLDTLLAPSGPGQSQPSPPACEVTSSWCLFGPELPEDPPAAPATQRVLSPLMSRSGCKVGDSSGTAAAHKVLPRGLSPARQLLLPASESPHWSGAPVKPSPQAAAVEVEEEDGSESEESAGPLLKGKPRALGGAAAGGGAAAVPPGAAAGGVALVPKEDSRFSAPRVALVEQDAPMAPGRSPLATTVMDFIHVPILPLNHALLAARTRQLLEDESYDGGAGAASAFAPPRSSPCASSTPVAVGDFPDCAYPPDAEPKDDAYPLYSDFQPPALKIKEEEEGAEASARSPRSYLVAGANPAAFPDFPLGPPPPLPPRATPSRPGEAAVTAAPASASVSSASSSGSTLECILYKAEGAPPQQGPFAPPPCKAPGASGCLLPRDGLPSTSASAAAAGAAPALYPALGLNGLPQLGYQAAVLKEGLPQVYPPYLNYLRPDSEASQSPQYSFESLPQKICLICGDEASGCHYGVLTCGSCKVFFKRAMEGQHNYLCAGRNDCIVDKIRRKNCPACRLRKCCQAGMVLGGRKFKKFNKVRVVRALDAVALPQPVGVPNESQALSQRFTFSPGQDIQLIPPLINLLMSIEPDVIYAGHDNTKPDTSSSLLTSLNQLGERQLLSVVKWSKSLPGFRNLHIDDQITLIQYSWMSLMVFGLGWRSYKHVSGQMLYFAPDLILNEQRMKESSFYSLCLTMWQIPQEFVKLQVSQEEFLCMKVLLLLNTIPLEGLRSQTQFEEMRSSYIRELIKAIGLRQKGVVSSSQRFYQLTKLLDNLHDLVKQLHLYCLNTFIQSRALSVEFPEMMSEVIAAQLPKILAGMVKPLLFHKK
# UniProt P34981, whole entry: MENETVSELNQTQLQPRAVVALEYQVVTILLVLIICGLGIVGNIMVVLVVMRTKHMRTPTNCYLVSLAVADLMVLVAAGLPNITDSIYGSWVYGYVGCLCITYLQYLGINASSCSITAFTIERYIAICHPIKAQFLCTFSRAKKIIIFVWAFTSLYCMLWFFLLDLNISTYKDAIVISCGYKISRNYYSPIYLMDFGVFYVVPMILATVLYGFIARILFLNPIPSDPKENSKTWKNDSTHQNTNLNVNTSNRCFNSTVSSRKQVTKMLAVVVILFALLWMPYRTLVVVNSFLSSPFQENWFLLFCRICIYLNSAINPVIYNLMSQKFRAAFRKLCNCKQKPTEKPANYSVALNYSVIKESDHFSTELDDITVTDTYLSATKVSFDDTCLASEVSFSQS
# UniProt P05177, whole entry: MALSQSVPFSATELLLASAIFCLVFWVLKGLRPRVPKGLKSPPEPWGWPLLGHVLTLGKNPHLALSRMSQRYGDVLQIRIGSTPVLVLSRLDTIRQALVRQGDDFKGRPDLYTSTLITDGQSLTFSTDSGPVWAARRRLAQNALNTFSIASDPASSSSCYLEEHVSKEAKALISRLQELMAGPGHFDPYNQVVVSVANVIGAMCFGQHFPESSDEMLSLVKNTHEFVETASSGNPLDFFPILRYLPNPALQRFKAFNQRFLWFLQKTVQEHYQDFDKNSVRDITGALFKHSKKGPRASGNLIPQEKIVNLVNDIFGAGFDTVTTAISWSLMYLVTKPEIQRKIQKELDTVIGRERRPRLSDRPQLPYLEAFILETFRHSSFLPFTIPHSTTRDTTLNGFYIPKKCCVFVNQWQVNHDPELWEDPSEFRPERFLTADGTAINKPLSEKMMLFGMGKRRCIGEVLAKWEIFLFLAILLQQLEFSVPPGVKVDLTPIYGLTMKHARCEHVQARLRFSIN
# UniProt Q12809, whole entry: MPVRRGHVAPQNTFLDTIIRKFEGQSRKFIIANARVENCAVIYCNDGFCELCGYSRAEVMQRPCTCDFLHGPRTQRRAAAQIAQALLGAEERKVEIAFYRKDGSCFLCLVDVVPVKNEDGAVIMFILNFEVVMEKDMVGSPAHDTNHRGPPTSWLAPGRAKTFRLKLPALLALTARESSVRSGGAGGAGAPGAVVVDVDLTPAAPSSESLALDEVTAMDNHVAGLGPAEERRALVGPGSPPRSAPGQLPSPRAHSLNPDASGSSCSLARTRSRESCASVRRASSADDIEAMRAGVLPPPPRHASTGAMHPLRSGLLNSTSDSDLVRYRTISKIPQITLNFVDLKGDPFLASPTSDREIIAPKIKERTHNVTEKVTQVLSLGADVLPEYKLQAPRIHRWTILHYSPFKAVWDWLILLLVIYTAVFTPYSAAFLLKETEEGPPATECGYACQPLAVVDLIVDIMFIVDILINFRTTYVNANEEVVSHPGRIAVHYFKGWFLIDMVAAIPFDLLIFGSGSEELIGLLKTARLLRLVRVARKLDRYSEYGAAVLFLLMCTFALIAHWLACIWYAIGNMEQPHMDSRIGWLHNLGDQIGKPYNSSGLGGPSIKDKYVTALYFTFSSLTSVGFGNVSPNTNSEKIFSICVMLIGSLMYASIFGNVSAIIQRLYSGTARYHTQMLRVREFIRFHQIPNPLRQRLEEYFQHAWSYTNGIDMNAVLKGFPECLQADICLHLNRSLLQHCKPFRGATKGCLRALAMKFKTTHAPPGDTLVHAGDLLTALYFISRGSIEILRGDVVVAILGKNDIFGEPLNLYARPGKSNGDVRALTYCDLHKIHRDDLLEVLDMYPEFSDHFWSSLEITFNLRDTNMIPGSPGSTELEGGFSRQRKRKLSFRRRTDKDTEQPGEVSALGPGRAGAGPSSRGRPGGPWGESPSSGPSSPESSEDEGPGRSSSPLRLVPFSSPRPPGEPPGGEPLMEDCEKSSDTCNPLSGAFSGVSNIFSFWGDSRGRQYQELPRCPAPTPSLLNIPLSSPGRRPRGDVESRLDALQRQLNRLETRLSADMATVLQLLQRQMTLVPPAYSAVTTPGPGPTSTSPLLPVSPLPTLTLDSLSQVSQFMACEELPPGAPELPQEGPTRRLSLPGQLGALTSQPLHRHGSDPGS
# UniProt P08684, whole entry: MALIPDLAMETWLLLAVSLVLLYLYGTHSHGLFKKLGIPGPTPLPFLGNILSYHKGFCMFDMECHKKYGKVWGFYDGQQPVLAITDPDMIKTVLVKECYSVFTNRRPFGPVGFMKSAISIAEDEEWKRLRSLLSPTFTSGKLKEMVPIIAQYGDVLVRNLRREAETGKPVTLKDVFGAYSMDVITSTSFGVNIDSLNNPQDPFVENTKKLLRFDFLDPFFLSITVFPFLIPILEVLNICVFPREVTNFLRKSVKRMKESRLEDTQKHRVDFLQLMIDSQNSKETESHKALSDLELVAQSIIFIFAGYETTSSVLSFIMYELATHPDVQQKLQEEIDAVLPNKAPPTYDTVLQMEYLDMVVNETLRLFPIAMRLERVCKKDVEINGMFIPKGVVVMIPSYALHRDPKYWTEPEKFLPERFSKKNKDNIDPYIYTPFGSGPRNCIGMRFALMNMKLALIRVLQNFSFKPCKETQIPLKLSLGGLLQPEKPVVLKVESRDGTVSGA
# “And” between values parts separate entries of the source, which are not always exact repeats. Equal entries are not always repeated. The list shows a part of the results, in another mix than the full data. Records with an inconclusive call do not appear. The source made the active and inactive calls. Unless noted, the call rests on the fitted dose curve; in most records, active means well fitted curve in the direction sought with a large enough effect in the repeat runs; inconclusive means weak or mixed curves; inactive means no such curve, though single readings can be large; an effect the other way counts as inactive or inconclusive.
# Key:
# [1] = qHTS assay to identify small molecule antagonists of the estrogen receptor beta (ER-beta) signaling pathway - cell viability counter screen (AID 1259382); settings: ER-beta-UAS-bla HEK293T viability, CellTiter-Glo luminescence, 16 h; at 92.4 µM (top of the series) unless noted;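 further: HEK293T cells carrying ER-beta-UAS-bla reporter stimulated with estradiol; nearly all actives have a fitted effect of over 55% in size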
# Method in brief: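 In this multiplexed counter screen, cells were seeded at 2,000 per well in medium with 2% charcoal-stripped FBS and incubated 6 hr before compound and 1nM final E2 were added. Sixteen hours later, ATP-based luminescence reported viability.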
# [2] = molecular target: Estrogen receptor (Homo sapiens) (UniProt P03372); experiment: qHTS assay to identify small molecule agonists of the estrogen receptor alpha (ER-alpha) signaling pathway in the presence of an antagonist (AID 1259383; calls by dose curve; further: top concentration of the series differs between compounds; nearly all actives have a fitted effect of over 15% in size); settings: VM7Luc4E2 cells, ERE-luciferase, +ICI-182,780, 22 h; at 92.4 µM (top of the series) unless noted
# [3] = qHTS assay to identify small molecule agonists or antagonists of the thyroid stimulating hormone receptor (TSHR) signaling pathway - wild type cell line counter screen (AID 1259384; calls by dose curve); settings: HEK293 wild type, cAMP HTRF counter-screen, hits give high values; at 92.4 µM (top of the series) unless noted
# Method in brief: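 Wild-type Hek293 cells, 800/well, 18 h at 37C, then compound with Ro20-1724 for 30 min RT. cAMP by HTRF (cAMP-d2/anti-cAMP cryptate), 1 h RT, fluorescence read. 15 concentrations, triplicates.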
# [4] = molecular target: Thyrotropin receptor (Homo sapiens) (UniProt P16473); experiment: qHTS assay to identify small molecule antagonists of the thyroid stimulating hormone receptor (TSHR) signaling pathway (AID 1259385; calls by dose curve; further: nearly all actives have a fitted effect of over 20% in size); settings: TSHR-HEK293 cAMP HTRF, TSH-stimulated antagonist mode; at 92.4 µM (top of the series)
# [5] = qHTS assay to identify small molecule agonists of the estrogen receptor alpha (ER-alpha) signaling pathway in the presence of an antagonist - cell viability counter screen (AID 1259386); settings: VM7Luc4E2 viability, CellTiter-Fluor fluorescence, 22 h; at 92.4 µM (top of the series);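 further: cells exposed to compounds for 22 h at 37 °C before the viability read; nearly all actives have a fitted effect of over 30% in size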
# Method in brief: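 Viability counter screen using VM7Luc4E2 (full-length ER-alpha, four ERE-luciferase). The cells were treated with compounds alongside ICI-182,780 10.0nM for 22hr, and live-cell protease fluorescence was quantified with CellTiter-Fluor.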
# [6] = molecular target: Progesterone receptor (Homo sapiens) (UniProt P06401); experiment: qHTS assay to identify small molecule antagonists of the progesterone receptor (PR) signaling pathway (AID 1346795; active means well fitted inhibition curve with a large enough effect in the signal ratio in the repeat runs, not every such curve was filed as active; the % refers to the signal ratio)
# Method in brief: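 Antagonist mode with agonist R5020 at 1 nM final and 16 hr incubation at 37C. Reporter was beta-lactamase driven by UAS in HEK293T (PR-UAS-bla), 2% charcoal-stripped serum; signal from LiveBLAzer FRET substrate, 2 hr at room temperature.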
# [7] = qHTS assay to identify small molecule antagonists of the progesterone receptor (PR) signaling pathway - cell viability counter screen (AID 1346798); settings: PR-UAS-bla HEK293T viability, CellTiter-Glo luminescence, 16 h; at 92.4 µM (top of the series); further: nearly all actives have a fitted effect of over 50% in size
# Method in brief: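 Cytotoxicity read as CellTiter-Glo luminescence (30 min, room temperature) in the same wells as the beta-lactamase readout. HEK293T PR-UAS-bla cells in charcoal-stripped 2% FBS received compound and R5020, then 16 h at 37C, 5% CO2.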
# [8] = qHTS assay to identify small molecule agonists of the TGF-beta/Smad signaling pathway - cell viability counter screen (AID 1346829); settings: SBE-bla HEK293T viability, CellTiter-Glo luminescence, 5 h; at 76.8 µM (top of the series) unless noted; further: top concentration of the series differs between compounds; nearly all actives have a fitted effect of over 45% in size
# Method in brief: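 Same-well cytotoxicity: CellTiter-Glo added after the 2 hr room-temperature beta-lactamase substrate step, luminescence measured 30 min later; cells had 5 hr of compound at 37 C.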
# [9] = molecular target: Thyrotropin-releasing hormone receptor (Homo sapiens) (UniProt P34981); experiment: qHTS assay to identify small molecule antagonists of the thyrotropin-releasing hormone receptor (TRHR) signaling pathway (AID 1346877; active means well fitted inhibition curve with a large enough effect in the repeat runs, not every such curve was filed as active)
# [10] = molecular target: Thyrotropin-releasing hormone receptor (Homo sapiens) (UniProt P34981); experiment: qHTS assay to identify small molecule agonists of the thyrotropin-releasing hormone receptor (TRHR) signaling pathway (AID 1346891; calls by dose curve;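 further: HEK293 cells expressing TRHR with calcium dye readout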); settings: TRHR-HEK293 calcium fluorescence, agonist mode; at 57.6 µM (top of the series)
# [11] = Human pregnane X receptor (PXR) small molecule agonists, qHTS cell viability counter screen (AID 1346977); further: nearly all actives have a fitted effect of over 50% in size
# Method in brief: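 Same-well viability read: CellTiter-Fluor added after 23 hr compound exposure, fluorescence measured 1 hr later. Cells were PXR-Luc HepG2 seeded at 2,000/well in 5% charcoal-stripped FBS medium, rested 5 hr before dosing at 37 C.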
# [12] = Caspase-3/7 induction in HepG2 cells by small molecules, qHTS assay (AID 1346978); settings: HepG2 caspase-3/7 activation, Caspase-Glo luminescence, 17 h; at 92.4 µM (top of the series) unless noted; further: nearly all actives have a fitted effect of over 15% in size
# Method in brief: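 Wild-type HepG2 cells, 2,000/well, settled 5 hr at 37 C and 5% CO2, then compound-treated for 17 hr; caspase-3/7 activity read by luminescent Caspase-Glo 3/7 after 30 min at room temperature.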
# [13] = Caspase-3/7 induction in CHO-K1 cells by small molecules, qHTS cell viability counter screen (AID 1346979); further: nearly all actives have a fitted effect of over 35% in size; further: potency means the concentration at half of the fitted maximal effect
# Method in brief: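 Cytotoxicity counter screen: CellTiter-Fluor added to compound-treated wild-type CHO-K1 cells at 16 h (37C, 5% CO2), fluorescence measured 1 h later; same wells as caspase-3/7 measurement.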
# [14] = Caspase-3/7 induction in CHO-K1 cells by small molecules, qHTS assay (AID 1346980); further: nearly all actives have a fitted effect of over 15% in size
# Method in brief: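 Wild-type CHO-K1 cells exposed to compounds for 17hr at 37 C, 5% CO2. Caspase-3/7 activity then measured by Caspase-Glo 3/7 luminescence after 30min at room temperature.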
# [15] = Caspase-3/7 induction in HepG2 cells by small molecules, qHTS cell viability counter screen (AID 1346981); settings: CellTiter-Fluor fluorescence, 17 h, at 92.4 µM (top of the series); further: nearly all actives have a fitted effect of over 30% in size
# Method in brief: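 Viability determined by CellTiter-Fluor fluorescence in HepG2 wells also used for the luminescent Caspase-Glo 3/7 read. Compounds were present for 16 hr at 37 C, 5% CO2 before reagent addition.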
# [16] = molecular target: Cytochrome P450 1A2 (Homo sapiens) (UniProt P05177); experiment: Cytochrome P450 Family 1 Subfamily A Member 2 (CYP1A2) small molecule antagonists: luciferase reporter qHTS assay (AID 1671199); further: nearly all actives have a fitted effect of over 50% in size; further: potency means the concentration at half of the fitted maximal effect
# [17] = molecular target: Voltage-gated inwardly rectifying potassium channel KCNH2 (Homo sapiens) (UniProt Q12809); experiment: Human Ether-a-go-go-Related Gene (hERG) channel small molecule antagonists: fluorescence cell-based qHTS assay (AID 1671200); further: nearly all actives have a fitted effect of over 50% in size
# Method in brief: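 Thallium flux as potassium surrogate: FluxOR II dye loaded 1 h at room temperature into hERG-expressing U2OS cells, then stimulus buffer added after 10 min. Kinetic 480 nm excitation/540 nm emission read, 2 min.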
# [18] = molecular target: Cytochrome P450 3A4 (Homo sapiens) (UniProt P08684); experiment: Cytochrome P450 Family 3 Subfamily A Member 4 (CYP3A4) small molecule antagonists: luciferase reporter qHTS assay (AID 1671201); further: nearly all actives have a fitted effect of over 50% in size
# Method in brief: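 Recombinant human CYP3A4 converts a proluciferin substrate to luciferin over 1 h at room temperature after NADPH regeneration solution is added (compound preincubated 10 min); detection reagent stops reaction, luminescence read 20 min later as relative units.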
# On the % scale 0 is the no-effect control and ±100 the full control effect.
Compound,"activity change, negative = cytotoxicity [1]",activation [2],cAMP activity change [3],"activity change, negative = inhibition [4]","activity change, negative = cytotoxicity [5]",Potency [6],"activity change, negative = cytotoxicity [7]","activity change, negative = cytotoxicity [8]",Potency [9],activation [10],Potency [11],caspase activation [12],Potency [13],Potency [14],"activity change, negative = cytotoxicity [15]",Potency [16],Potency [17],Potency [18]
CN(C)CCCl,inactive: 1.06%,inactive: -0.998%,inactive: -0.329%,inactive: 0.463%,inactive: -2.94%,inactive,inactive: -16.2%,inactive: -6.38%,inactive,inactive: -0.368%,inactive,inactive: -1.29%,inactive,inactive,inactive: -7.89%,inactive,inactive,inactive
O=[N+]([O-])c1cccc([N+](=O)[O-])c1,inactive: -1.1%,inactive: 1.79%,inactive: -6.2%,,,,,inactive: 1.14%,inactive,inactive: 0.678%,inactive,inactive: -0.94%,inactive,inactive,inactive: 1.98%,active: 45.5 µM,inactive,inactive
CP(=O)(O)OCCC[Si](O)(O)O,inactive: 9.4%,inactive: -0.965%,inactive: -1.21%,,inactive: -3.22%,inactive,,inactive: 5.73%,,,inactive,inactive: -0.951%,inactive,inactive,inactive: -1.29%,inactive,inactive,inactive
Nc1cc([N+](=O)[O-])cc([N+](=O)[O-])c1O,inactive: -6.82%,inactive: -2.42%,,,,,,inactive: -23.7%,inactive,inactive: 3.03%,,inactive: -7.37%,active: 24.9 µM,inactive,,inactive,inactive,
Cc1c([N+](=O)[O-])cccc1[N+](=O)[O-],inactive: -1.44% and inactive: 5.26%,,inactive: -3.3% and inactive: 5.51%,inactive: 4.87% and inactive: -0.806%,inactive: 2.3% and inactive: 2.01%,inactive,inactive: 28.5%,inactive: 3.62% and inactive: 9%,inactive,inactive: -0.719% and inactive: -0.443%,inactive,inactive: 0.276% and inactive: -0.0184%,inactive,inactive,inactive: 0.285% and inactive: 6.81%,active: 19.7 µM and active: 20 µM,inactive,inactive
